# In patent US10940151B2, “Methods for treating renal disease” (Beth Israel Deaconess Medical Center, Inc., priority 2012, dated 2021):
# B1: interferon beta: type 1 interferon (protein, UniProt P01574 22-187, looked up)
# Interferon beta: MSYNLLGFLQRSSNFQCQKLLWQLNGRLEYCLKDRMNFDIPEEIKQLQQFQKEDAALTIYEMLQNIFAIFRQDSSSTGWNETIVENLLANVYHQINHLKTVLEEKLEKEDFTRGKLMSSLHLKRYYGRILHYLKAKEYSHCAWTIVRVEILRNFYFINRLTGYLRN
# Tested on: APOL1 mRNA expression in endothelial cells
# Experiment: APOL1 mRNA expression in endothelial cells after stimulation with interferons, TLR/RIG agonists or bacterial DNA
# Type: cell-based
# Details: interferon stimulation (FIG. 3A, 3B)
# Excerpt: Interferons cause log-fold upregulation of APOL1 gene expression in several cell types. Both type 1 (alpha and beta) interferons and type 2 (gamma) interferon greatly amplifies APOL1 expression in both endothelial cells and podocytes.
# HIV is a powerful inducer of APOL1 renal disease in individuals with the renal risk genotype. Other viruses such as parvovirus have been associated with FSGS. Viral sensing stimulates APOL1 expression. Cells have extracellular, endosomal, and cytoplasmic viral sensors such as TLRs, Rig-L1, and others. These genes are potential targets for reducing APOL1 expression.
molecule,measurement,value
B1,upregulation of APOL1,up to 30 fold
